Source: BindingDB's records for 10.1016/0960-894X(95)00522-1

Amino acid sequences for entries named in this document (tags omitted).
UniProt P41143, whole entry: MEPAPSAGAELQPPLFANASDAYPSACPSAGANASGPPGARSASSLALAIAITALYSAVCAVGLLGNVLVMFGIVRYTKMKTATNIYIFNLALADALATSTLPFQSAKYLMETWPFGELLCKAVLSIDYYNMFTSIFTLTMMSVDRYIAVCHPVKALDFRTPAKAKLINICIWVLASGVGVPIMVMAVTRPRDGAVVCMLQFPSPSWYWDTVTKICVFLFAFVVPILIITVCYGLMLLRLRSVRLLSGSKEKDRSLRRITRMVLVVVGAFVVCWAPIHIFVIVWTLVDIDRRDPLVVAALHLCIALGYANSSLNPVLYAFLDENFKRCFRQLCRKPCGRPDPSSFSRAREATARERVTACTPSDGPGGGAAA

Biological target: Delta-type opioid receptor (Homo sapiens, UniProt P41143)
Assay: ASSAY_NAME: ChEBML_53437 DESCRIPTION: Compound was tested for its ability to displace [3H]Cl-DPDPE from delta opioid receptor in hartley guinea pig brain membrane in the presence of 100 nM of DPDPE

Structure (SMILES)	IC50 [nM]
COC12C=CC34C[C@@]1(C)[C@H](c1ccccc1)N[C@H]2C31CCN(C)C4Cc2ccc(O)cc21	0.32
CCOc1ccc(C2=N[C@H]3C45CCN(C)C(Cc6ccc(OC)c(O)c64)[C@]54C=C[C@@]3(OC)[C@@]2(C)C4)cc1	12
COc1ccc2c(c1OC)[C@]13CC[N+](C)(C)[C@H](C2)[C@]12C=C[C@]1(OC)[C@H]3N=C(c3ccccc3)[C@]1(C)C2	34
COC12C=CC34C[C@@]1(C)C(c1ccccc1)=N[C@H]2C31CCN(C)C4Cc2ccc(O)cc21	0.69
CO[C@]12C=C[C@]34C[C@@]1(C)[C@H](c1ccccc1)N(C)[C@H]2C31CCN(C)C4Cc2ccc(O)cc21	0.71
COc1ccc2c(c1O)C13CCN(C)C(C2)C12C=CC1(OC)[C@H]3N=C(c3ccccc3)[C@]1(C)C2	2.4
